Reference: patent US20140065632A1, “MARKER GENE FOR DETECTION OF TUMOR PROMOTER, AND METHOD FOR DETECTION OF TUMOR PROMOTER” (priority 2007, published 2014)

How the values were obtained:
Orm1 = experiment: Quantitative RT-PCR of Orm1 gene expression in the BALB/c 3T3 cell transformation assay; assay type: cell-based, mouse; conditions: Example 3; MCA-initiated BALB/c 3T3 cells, RNA 48 hours after addition of test substance, normalized by β-actin
Bhas cells = experiment: Transformation assay using Bhas cells (focus formation); conditions: Example 4; foci on day 21
BALB/c 3T3 cells = experiment: Transformation assay using BALB/c 3T3 cells (focus formation)

CN(N=O)C(=N)N[N+](=O)[O-]
Expression level of Orm1 (rates relative to the negative control) (Orm1): 1.3 | ability to form foci in the Bhas cellular transformation assay (Bhas cells): unable to form foci | ability to form foci in the BALB/c 3T3 cell transformation assay (BALB/c 3T3 cells; Example 2): unable to form foci | Focus formation in the BALB/c 3T3 cell transformation assay (BALB/c 3T3 cells; Example 2/3, foci counted on day 25, significance P<0.05 Wilcoxon vs negative control): −
